# Antibody variant affinities, Ab-14 light chain, assay B

The target is the same throughout: PDVDLGDISGINAS, from the HR2 region of SARS-CoV-2 spike.

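Phage display of a naive human antibody library on the peptide gave the parent. These sequences belong to a second round, designed from the earlier measurements on random variants of the parent. Several design methods are mixed in this list. The assay is AlphaSeq: two haploid yeast populations carry antibody and antigen on their surface. Binding brings cells together so that they mate, and sequencing counts the barcode pairs among the diploids. Scores were corrected for input abundance and mapped to Kd with protein pairs of known affinity run in the same pool. The assay was run in six technical replicates.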

Each scFv is VH, three GGGGS repeats, VL, as in the parent Ab-14, and differs from it in the CDRs of the light chain only.
VH: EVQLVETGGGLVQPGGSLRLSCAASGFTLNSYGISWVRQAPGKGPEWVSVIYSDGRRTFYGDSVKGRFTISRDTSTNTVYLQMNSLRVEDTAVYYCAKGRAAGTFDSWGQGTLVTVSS
VL: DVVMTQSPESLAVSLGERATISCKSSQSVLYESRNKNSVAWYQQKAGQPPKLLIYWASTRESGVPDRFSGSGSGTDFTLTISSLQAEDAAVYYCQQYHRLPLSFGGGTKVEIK

Variants are written as CDR1, CDR2 and CDR3 of the light chain (limits as in the source). Parent: KSSQSVLYESRNKNSVA, WASTRES, QQYHRLPLS. This list holds designs with at most six substitutions. The read-out is the apparent dissociation constant on a log10 scale (nM): the lower, the stronger. A mean of the replicates is given; it leaves out those without a signal. A pair that was not seen in any replicate is written "no signal"; this usually means weak binding, but a binder can also be missed.

KSSQSVLEESREKNSVA / WASTRES / QQYHRLPLS: 0.73 (6 of 6 replicates; controls 0 of 18).
KMSQSVLMEKRNKNSVA / DASLRES / QQYHRLPLS: -0.25 (6 of 6 replicates; controls 1 of 18).
KSEQGVLYESRVKNSVA / GASTRES / QQYHRLPLS: 0.22 (6 of 6 replicates; controls 1 of 18).
KMEQSNGYESRNKNSVA / NASTRES / QQYHRLPLS: -0.17 (6 of 6 replicates; controls 1 of 18).
KPSQSVLYESEEKNSVA / MASTRER / QSYHRLPLS: 1.59 (3 of 6 replicates; controls 1 of 18).
KSSQSVLWESRNFNSVA / QASTRES / QQYHFLPLS: 2.19 (5 of 6 replicates; controls 2 of 18).
KQSQSILYESRNLNSVA / KASTRES / QSYTRLPLS: 1.43 (6 of 6 replicates; controls 0 of 18).
KVRQSTLYESRNKNSVA / QASTRES / QQYHRLPLT: -0.05 (6 of 6 replicates; controls 0 of 18).
KLMGSAEYESRNKNSVA / EASTRES / QQYHRLPLS: -0.29 (6 of 6 replicates; controls 1 of 18).
KSSQSVEYEERNKNSVA / WASTQES / QQYHRLPLS: no signal (0 of 6 replicates; controls 0 of 18).
KLQQSWLYESRNKNSVA / NASTRLS / QDYHRLPLS: -0.37 (6 of 6 replicates; controls 1 of 18).
KLSQSNLYESRNKNSVA / NASTREV / QQYHRLPLS: -0.15 (6 of 6 replicates; controls 1 of 18).
KLSQSVLYESRNKNSVA / NASTRED / QDYHRLPLS: 0.46 (6 of 6 replicates; controls 3 of 18).
KVPQSWLYESRNKNSVA / NASQRES / QQYHRLPLS: -0.08 (6 of 6 replicates; controls 1 of 18).
KSYWSFLYESRNKNSVA / EASTRES / QQYHRLPLS: 0.44 (6 of 6 replicates; controls 1 of 18).
KSSTSVLSESNNKNSVA / GENTRES / QQYHRLPLS: 0.53 (6 of 6 replicates; controls 2 of 18).
KVSQSEEYESRWKNSVA / NASQRES / QQYHRLPLS: 0.03 (6 of 6 replicates; controls 0 of 18).
KLPQSVQYESRNKNSVA / NASTRES / QQYHRLPLS: -0.34 (6 of 6 replicates; controls 0 of 18).
KLDQSVDYESRNKNSVA / NASTRES / QQYHRLPLS: 0.00 (6 of 6 replicates; controls 1 of 18).
KSSQSVTYESRNKNSVA / QASTRES / QQYHRLPLS: 0.52 (6 of 6 replicates; controls 0 of 18).
KLPQSVLYESRNKNSVA / NASQRES / QQYHRLPLS: -0.27 (6 of 6 replicates; controls 2 of 18).
KLSQSQEYESRNKNSVA / NASQRES / QQYHRLPLS: 0.12 (6 of 6 replicates; controls 0 of 18).
KSSQSVTYESRNKNSVC / WASTRES / QQYHRLPLS: no signal (0 of 6 replicates; controls 0 of 18).
KSSQSVLYESRNKNSVA / WASTRGT / QQYHRLPLS: 2.57 (5 of 6 replicates; controls 0 of 18).
KSSWSQLYESNNKNSVA / HASTRED / QQYHRLPLS: 0.05 (6 of 6 replicates; controls 6 of 18).
KSSQSVLYEDRYKSSVA / WASTRES / QQSHRLPLS: no signal (0 of 6 replicates; controls 0 of 18).
KSSISVLYESNNKNSVA / HASTRED / QQYHRLPLS: 0.63 (6 of 6 replicates; controls 1 of 18).
KLSQSQLYESRMKNSVA / NASQRES / QQYHRLPLS: 0.46 (6 of 6 replicates; controls 0 of 18).
KLSQSVLYESRNKNSVA / HASTRES / QQYHRLPLM: -0.20 (6 of 6 replicates; controls 0 of 18).
KSSISYLGEKGNKNSVA / EASTRES / QQYHRLPLS: 0.50 (6 of 6 replicates; controls 1 of 18).
KSFFSEPGESRNKNSVA / SASTRES / QQYHRLPLS: 0.33 (6 of 6 replicates; controls 3 of 18).
KLSGSVLMESRNKNSVA / SATTRLS / QQYHRLPLS: -0.13 (6 of 6 replicates; controls 2 of 18).
KPSGSVLYEARNKQSVA / WASTRLS / QQYHRLPLS: no signal (0 of 6 replicates; controls 1 of 18).
KQSQSVLYESRNKNSVA / DASTRES / QQYHRLPLH: 0.59 (6 of 6 replicates; controls 0 of 18).
KSSQSVLYESNNKNSVA / GATTRES / QQYHRLPLS: 0.10 (6 of 6 replicates; controls 4 of 18).
KQSQAFLTESRNKNSVA / DANTRES / QQYHRLPLS: -0.22 (6 of 6 replicates; controls 0 of 18).
KFSQAFLYESRNKNSVA / DANTRES / QQYHRLPLS: 0.27 (6 of 6 replicates; controls 0 of 18).
KVRQSMLYESRNKNSVA / NASTRES / QQYHRLPLS: -0.20 (6 of 6 replicates; controls 0 of 18).
KISMSVLYDSNTKNSVA / WASTRES / QQYHRLPLS: no signal (0 of 6 replicates; controls 0 of 18).
KLSQQDLYESRNKNSVA / GASTRES / QQYHRLPLS: -0.26 (6 of 6 replicates; controls 1 of 18).

Again, the first 5 entries without any signal:

Variant KSSQSVEYEERNKNSVA / WASTQES / QQYHRLPLS gave no signal (0 of 6 replicates; controls 0 of 18).
Variant KSSQSVTYESRNKNSVC / WASTRES / QQYHRLPLS gave no signal (0 of 6 replicates; controls 0 of 18).
Variant KSSQSVLYEDRYKSSVA / WASTRES / QQSHRLPLS gave no signal (0 of 6 replicates; controls 0 of 18).
Variant KPSGSVLYEARNKQSVA / WASTRLS / QQYHRLPLS gave no signal (0 of 6 replicates; controls 1 of 18).
Variant KISMSVLYDSNTKNSVA / WASTRES / QQYHRLPLS gave no signal (0 of 6 replicates; controls 0 of 18).

The range of this assay differs from that of the first round, and the authors advise against merging the two. The authors averaged sequences with at least three values out of six and counted those with two or fewer as poor binders. Of ten entries with the parent sequence, four were seen in most replicates (averages 0.34 to 2.37), three in one and three in none, so single entries are noisy. Nonspecific signal, from three strains lacking the peptide, appeared in 4% of pairings of all light chain designs, centred on 2.64 (5% of these signals below 1.59); values are not corrected for it. Also given: how often the same scFv was detected with the empty control strains.

Values reported by Li et al. 2023, doi:10.1038/s41467-023-39022-2 (FLAb copy).